In ChEMBL document CHEMBL1151884, “Nuclease resistant methylphosphonate-DNA/LNA chimeric oligonucleotides” (2009):

Tests used:
Nucleic Acid [1] = test: Binding affinity to DNA assessed as change in melting temperature in presence of 30 mM NaCl
Nucleic Acid [2] = test: Binding affinity to RNA assessed as change in melting temperature in presence of 120 mM NaCl
Nucleic Acid [3] = test: Binding affinity to DNA assessed as change in melting temperature in presence of 120 mM NaCl
Nucleic Acid [4] = test: Binding affinity to RNA assessed as change in melting temperature in presence of 30 mM NaCl

SMILES | ΔTm (Nucleic Acid [1]) [°C] | ΔTm (Nucleic Acid [2]) [°C] | ΔTm (Nucleic Acid [3]) [°C] | ΔTm (Nucleic Acid [4]) [°C]
Cc1cn([C@H]2C[C@H](OP(=O)(O)OC[C@H]3O[C@@H](n4cnc5c(=O)[nH]c(N)nc54)C[C@@H]3OP(=O)(O)OC[C@H]3O[C@@H](n4ccc(N)nc4=O)C[C@@H]3O)[C@@H](COP(C)(=O)O[C@H]3C[C@H](n4cnc5c(N)ncnc54)O[C@@H]3COP(=O)(O)O[C@H]3C[C@H](n4cc(C)c(=O)[nH]c4=O)O[C@@H]3COP(=O)(O)O[C@H]3C[C@H](n4cnc5c(N)ncnc54)O[C@@H]3COP(C)(=O)O[C@H]3C[C@H](n4cnc5c(=O)[nH]c(N)nc54)O[C@@H]3COP(=O)(O)O[C@H]3C[C@H](n4cc(C)c(=O)[nH]c4=O)O[C@@H]3COP(=O)(O)O[C@H]3C[C@H](n4cnc5c(=O)[nH]c(N)nc54)O[C@@H]3CO)O2)c(=O)[nH]c1=O (stereo partly drawn) | 1 | -5 | -2 | –
Cc1cn([C@@H]2O[C@@]3(COP(C)(=O)O[C@H]4C[C@H](n5cnc6c(N)ncnc65)O[C@@H]4COP(C)(=O)O[C@H]4C[C@H](n5cnc6c(=O)[nH]c(N)nc65)O[C@@H]4COP(=O)(O)O[C@H]4[C@H]5OC[C@]4(COP(C)(=O)O[C@H]4C[C@H](n6cnc7c(=O)[nH]c(N)nc76)O[C@@H]4CO)O[C@H]5n4cc(C)c(=O)[nH]c4=O)CO[C@@H]2[C@@H]3OP(=O)(O)OC[C@H]2O[C@@H](n3cnc4c(N)ncnc43)C[C@@H]2OP(C)(=O)OC[C@@]23CO[C@@H]([C@H](n4cc(C)c(=O)[nH]c4=O)O2)[C@@H]3OP(=O)(O)OC[C@H]2O[C@@H](n3cnc4c(=O)[nH]c(N)nc43)C[C@@H]2OP(C)(=O)OC[C@H]2O[C@@H](n3ccc(N)nc3=O)C[C@@H]2O)c(=O)[nH]c1=O (stereo partly drawn) | 14 | 13 | 5 | 17
Cc1cn([C@@H]2O[C@@]3(COP(C)(=O)O[C@H]4C[C@H](n5cnc6c(N)ncnc65)O[C@@H]4COP(=O)(O)O[C@H]4[C@H]5OC[C@]4(COP(=O)(O)O[C@H]4C[C@H](n6cnc7c(N)ncnc76)O[C@@H]4COP(C)(=O)O[C@H]4C[C@H](n6cnc7c(=O)[nH]c(N)nc76)O[C@@H]4COP(=O)(O)O[C@H]4[C@H]6OC[C@]4(COP(=O)(O)O[C@H]4C[C@H](n7cnc8c(=O)[nH]c(N)nc87)O[C@@H]4CO)O[C@H]6n4cc(C)c(=O)[nH]c4=O)O[C@H]5n4cc(C)c(=O)[nH]c4=O)CO[C@@H]2[C@@H]3OP(=O)(O)OC[C@H]2O[C@@H](n3cnc4c(=O)[nH]c(N)nc43)C[C@@H]2OP(=O)(O)OC[C@H]2O[C@@H](n3ccc(N)nc3=O)C[C@@H]2O)c(=O)[nH]c1=O (stereo partly drawn) | 13 | 20 | 10 | 23
Cc1cn([C@H]2C[C@H](OP(=O)(O)OC[C@H]3O[C@@H](n4cnc5c(N)ncnc54)C[C@@H]3OP(C)(=O)OC[C@H]3O[C@@H](n4cc(C)c(=O)[nH]c4=O)C[C@@H]3OP(=O)(O)OC[C@H]3O[C@@H](n4cnc5c(=O)[nH]c(N)nc54)C[C@@H]3OP(C)(=O)OC[C@H]3O[C@@H](n4ccc(N)nc4=O)C[C@@H]3O)[C@@H](COP(C)(=O)O[C@H]3C[C@H](n4cnc5c(N)ncnc54)O[C@@H]3COP(C)(=O)O[C@H]3C[C@H](n4cnc5c(=O)[nH]c(N)nc54)O[C@@H]3COP(=O)(O)O[C@H]3C[C@H](n4cc(C)c(=O)[nH]c4=O)O[C@@H]3COP(C)(=O)O[C@H]3C[C@H](n4cnc5c(=O)[nH]c(N)nc54)O[C@@H]3CO)O2)c(=O)[nH]c1=O (stereo partly drawn) | 4 | – | -4 | –
